According to patent publication US20220332695A1, “UREA DERIVATIVES AS CB1 ALLOSTERIC MODULATORS” (RTI INTERNATIONAL, priority 2019, published 2022):

Molecular target: hCB1R (Homo sapiens, UniProt P21554)
Assay: Intrinsic activity: basal [35S]GTPγS binding in the absence of CP55,940
Details: read-out: inverse agonism IC50

O=C(Nc1ccc(Cl)cc1)Nc1cccc(-c2cccc(N3CCCC3)n2)c1 [Compound 2, reference compound]
IC50: 1.47 µM
